Experimental data: patent EP4813980A1, “EP300/CBP REGULATOR, AND PREPARATION METHOD THEREFOR AND USE THEREOF” (Miracure Biotechnology Limited, priority 2023, dated 2025)

Amino acid sequences for entries named in this document (tags omitted). Residues count along the entry.
UniProt Q92793, 1085-1192 limits assumed: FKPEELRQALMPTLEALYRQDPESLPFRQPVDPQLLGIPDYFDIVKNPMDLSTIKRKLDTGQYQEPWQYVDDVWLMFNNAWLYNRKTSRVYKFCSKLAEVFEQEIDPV

Target: T1, CBP bromodomain (Homo sapiens, UniProt Q92793)
T1 construct: purchased
Assay: CBP AlphaLISA Assay Kit: binding of CBP bromodomain to acetylated histone substrate
Conditions: 30 min incubation with CBP and biotinylated substrate, N=2, unit inferred
Description: The biochemical activity test of CBP preparations was detected using CBP AlphaLISA® Assay Kit. The detection principle is based on the binding of CBP bromodomain to acetylated histone substrate. The compounds were incubated with CBP and biotinylated substrate for 30 min, followed by the addition of acceptor beads for 15 min and donor beads for 15 min. Alpha counts were read, data were analyzed using Prism 7.0 and IC50 values were calculated.

Structure (SMILES): CO[C@H]1CC[C@H](n2c([C@@H]3CCCC(=O)N3c3ccc(F)c(F)c3)nc3cc(-c4c(C)noc4C)ccc32)CC1 [CCS1477]
- IC50: 9.9 nM
